# AlphaSeq binding of Ab-95 light chain variants to a spike HR2 peptide

Target peptide (SARS-CoV-2 spike, HR2 region): PDVDLGDISGINAS

Ab-95 is the parent antibody, in scFv form: VH, then a (GGGGS)3 linker, then VL. The heavy chain is unchanged in all variants.
VH: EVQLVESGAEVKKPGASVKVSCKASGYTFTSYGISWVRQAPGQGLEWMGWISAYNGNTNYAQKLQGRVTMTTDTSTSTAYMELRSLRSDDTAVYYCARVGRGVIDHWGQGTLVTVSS
VL: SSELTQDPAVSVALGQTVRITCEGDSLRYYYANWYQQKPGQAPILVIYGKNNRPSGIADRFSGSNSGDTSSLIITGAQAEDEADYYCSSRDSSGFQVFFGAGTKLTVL

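Phage display of a naive human antibody library on the peptide gave the parent. Variants in AAYL52 differ from the parent at up to three CDR positions; double and triple changes were sampled at random. Affinity was read by AlphaSeq, a pooled yeast mating assay with surface-displayed partners. Mating (16 h, 30 °C) was followed by selection of diploids and sequencing of their barcodes. Read counts were normalised to the haploid input and turned into Kd by a linear fit to BCL2-family pairs of known affinity, for each replicate. There are three technical replicates.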

Each variant is given by its three light chain CDRs, as the data file delimits them; those of the parent are EGDSLRYYYAN, GKNNRPS, SSRDSSGFQVF. All variants listed here change L27 of the VL, counted from its first residue. Each Kd is an estimate from the mating assay, the geometric mean of the replicates in which the pair was seen; lower is stronger. "not detected" means that the variant was in the library but no mating with the target was seen in any replicate; the authors take this as a sign of poor binding, and no number exists. Entries are sorted by rising average, undetected variants last. For reference, the parent read 200 nM as the reference entry and 180 nM as a member of this library.

| CDR-L1 | CDR-L2 | CDR-L3 | apparent Kd | seen in | empty controls |
|---|---|---|---|---|---|
| EGDSDRYRYPN | GKNNRPS | SSRDSSGFQVF | 120 nM | 3/3 | 3/9 |
| EGDSFRYPYAN | GKNNRPS | SSRDSSGFQVF | 140 nM | 3/3 | 0/9 |
| EGDSIRYYYAN | GKNNRPS | SSRDSSGFQVF | 160 nM | 3/3 | 3/9 |
| EGDSWRYLDAN | GKNNRPS | SSRDSSGFQVF | 430 nM | 3/3 | 4/9 |
| EGVSSRWYYAN | GKNNRPS | SSRDSSGFQVF | 460 nM | 3/3 | 3/9 |
| EGDSARYYYAN | GKNNRPS | SSRDSSGFQVF | 530 nM | 3/3 | 4/9 |
| EGDSCRYYYAN | GKNNRPS | SSRDSDGFQNF | 630 nM | 1/3 | 5/9 |
| EGDAMRYYYAN | GKANRPS | SSRDSSGFQVF | 1.5 µM | 2/3 | 3/9 |
| EGDSMRSYYAN | GKNNRPS | SSRDSGGFQVF | 1.6 µM | 2/3 | 5/9 |
| EGDSIRYYYAN | GKNNRPS | SMRDSSGFQVI | 1.7 µM | 2/3 | 0/9 |
| EGDSVRYYRAN | GKNNRPS | SSRDKSGFQVF | 1.8 µM | 3/3 | 5/9 |
| EGDSWRYYYAN | GKNNRPS | HSRDSSKFQVF | 2.1 µM | 3/3 | 1/9 |
| EGDSGRYYYAN | GKNNPPS | STRDSSGFQVF | 2.3 µM | 1/3 | 0/9 |
| EGDSIRYYYWN | GKNNQPS | SSRDSSGFQVF | 2.4 µM | 1/3 | 0/9 |
| EGDSVRDYYAN | GKNNRPC | SSRDSSGFQVF | 2.5 µM | 3/3 | 1/9 |
| EGDSYRYYYQN | GKNNRPS | SSRDSSGFQVF | 2.6 µM | 3/3 | 2/9 |
| EGDSCRYYYAL | GKNNRPS | SSRDSSGFRVF | 2.7 µM | 2/3 | 2/9 |
| EGDSIRYYYAN | GRNNRPP | SSRDSSGFQVF | 2.9 µM | 3/3 | 0/9 |
| EGDSYRYYYAN | GKNSRPS | SSRDSSGFQVF | 3.2 µM | 1/3 | 2/9 |
| EGDSDRYYYAN | GKNNRPS | SSRDSSGFQVF | 3.3 µM | 2/3 | 3/9 |
| EGASERYYYAN | GKNNRPT | SSRDSSGFQVF | 4.1 µM | 2/3 | 1/9 |
| EGDSHRYYSAN | GKNNRPS | SSRDSSGFQFF | 4.5 µM | 2/3 | 2/9 |
| EGDSARYYYAN | GKNNRPS | SSRYSTGFQVF | 4.7 µM | 2/3 | 4/9 |
| EGDSIRYYYAN | GKNNRWS | SSRDSKGFQVF | 5.5 µM | 2/3 | 2/9 |
| EGDSFRYYYAN | GKNNRFS | SSRDKSGFQVF | 6.0 µM | 3/3 | 0/9 |
| EGDYYRYYYAN | GKNNRPS | SSMDSSGFQVF | 6.1 µM | 1/3 | 3/9 |
| EGDSQRYYYCN | GKNNRPS | SSRDPSGFQVF | 6.3 µM | 1/3 | 2/9 |
| EGDSNRYYYAN | GKENRPS | SSRDSSGFFVF | 6.4 µM | 1/3 | 2/9 |
| EGDSQRYMYAN | GKNNRPS | TSRDSSGFQVF | 7.6 µM | 2/3 | 2/9 |
| EADSVRYYYAN | CKNNRPS | SSRDSSGFQVF | 9.4 µM | 1/3 | 5/9 |
| AGDSTRYYYAN | GKNNRCS | SSRDSSGFQVF | 11 µM | 2/3 | 2/9 |
| EGDSIRYYYAN | GKNNRMS | SSRDSSGFQVF | 12 µM | 2/3 | 2/9 |
| EGDSSRIYYAN | GKNNRPS | SSRDSPGFQVF | 12 µM | 3/3 | 3/9 |
| EGDSSRYYYAN | IKNNRPS | SSRDSSGFIVF | 13 µM | 1/3 | 2/9 |
| EGDSMRYYYAL | GQNNRPS | SSRDSSGFQVF | 13 µM | 1/3 | 3/9 |
| EGDSDRYYYAN | WKNNRPS | SSRDSSGNQVF | 13 µM | 1/3 | 2/9 |
| EGGSSRYYYAN | GKNNRPS | SSRKSSGFQVF | 14 µM | 1/3 | 2/9 |
| EGDSNRYYYAN | GKNNRPS | SKRDSSGFKVF | 17 µM | 2/3 | 4/9 |
| EGDSARYYYAN | GKWNRPS | SSRQSSGFQVF | 25 µM | 3/3 | 5/9 |
| EWDSIRYYYAN | GKNNRPS | STRDSSGFQVF | 30 µM | 1/3 | 2/9 |
| EQDSERYYYAN | GKNNRPS | LSRDSSGFQVF | 33 µM | 2/3 | 1/9 |
| EGDSKRYYYAN | GKNNRPC | CSRDSSGFQVF | 36 µM | 1/3 | 2/9 |
| EGDSALYYYAN | GKNNRPS | SSRDSSGFQVF | 44 µM | 2/3 | 1/9 |
| EGDSRRYYQAN | GKQNRPS | SSRDSSGFQVF | 50 µM | 3/3 | 2/9 |
| EGDSVRYYYAN | GKNNRPS | QSYDSSGFQVF | 57 µM | 1/3 | 0/9 |
| EGDNCRYYYAN | GKNNRPS | SSRDSIGFQVF | 91 µM | 1/3 | 2/9 |
| EGDSWRYYYAN | GKNYEPS | SSRDSSGFQVF | 150 µM | 1/3 | 0/9 |
| EGDSIRYYYID | GKNNRPS | SSRDSSGFQVF | 160 µM | 1/3 | 2/9 |
| EFDSHRYYYEN | GKNNRPS | SSRDSSGFQVF | 330 µM | 1/3 | 2/9 |
| EPDSTRYYYAN | GKNNRPS | SSRDSSGFNVF | 430 µM | 1/3 | 2/9 |
| EGDSSRYYYAN | GKNSRPS | SSRDSSGPQVF | 690 µM | 1/3 | 2/9 |
| YGDSHRYYYWN | GKNNRPS | SSRDSSGFQVF | not detected | 0/3 | 1/9 |
| EGDSERYYHAN | GKNNRPS | SSRDSSGFQNF | not detected | 0/3 | 1/9 |
| EGDSGRYYYAN | GKNNRPS | SSRDFCGFQVF | not detected | 0/3 | 5/9 |
| EGDSWRYYYAS | GKNNRPS | SSRDSYGFQVF | not detected | 0/3 | 2/9 |
| EGDSCRYLYAN | GKNNRPS | SSRDMSGFQVF | not detected | 0/3 | 1/9 |
| EGDSQRYYYMN | GKNNRPS | SSNDSSGFQVF | not detected | 0/3 | 1/9 |
| EGDSPRYYYCN | GKNNRPS | SSRDSSGFQAF | not detected | 0/3 | 3/9 |
| EGDSGRYYYAR | GKNNRPS | RSRDSSGFQVF | not detected | 0/3 | 1/9 |
| EGDSDRYYYAN | GKNGRPS | SSRDSSGFIVF | not detected | 0/3 | 1/9 |
| EGDSKRYYYAN | GKNNRPS | SSRDSSGRQVF | not detected | 0/3 | 2/9 |

For reference, 6 entries of the list once more:

{"CDR-L1": "EGDSIRYYYWN", "CDR-L2": "GKNNQPS", "CDR-L3": "SSRDSSGFQVF", "apparent Kd": "2.4 µM", "seen in": "1/3", "empty controls": "0/9"}
{"CDR-L1": "EGDSERYYHAN", "CDR-L2": "GKNNRPS", "CDR-L3": "SSRDSSGFQNF", "apparent Kd": "not detected", "seen in": "0/3", "empty controls": "1/9"}
{"CDR-L1": "EGDSYRYYYAN", "CDR-L2": "GKNSRPS", "CDR-L3": "SSRDSSGFQVF", "apparent Kd": "3.2 µM", "seen in": "1/3", "empty controls": "2/9"}
{"CDR-L1": "EGDSIRYYYAN", "CDR-L2": "GKNNRPS", "CDR-L3": "SMRDSSGFQVI", "apparent Kd": "1.7 µM", "seen in": "2/3", "empty controls": "0/9"}
{"CDR-L1": "EGDSCRYYYAN", "CDR-L2": "GKNNRPS", "CDR-L3": "SSRDSDGFQNF", "apparent Kd": "630 nM", "seen in": "1/3", "empty controls": "5/9"}
{"CDR-L1": "EGDSGRYYYAR", "CDR-L2": "GKNNRPS", "CDR-L3": "RSRDSSGFQVF", "apparent Kd": "not detected", "seen in": "0/3", "empty controls": "1/9"}

Background: pairings of library AAYL52 with three empty control strains gave a value in 28% of cases (median 8.2 µM, 5th percentile 800 nM). Values in that range, when seen in few replicates, are hard to tell from nonspecific mating. For each scFv, signals with the empty controls are counted beside the result.

Reference: Engelhart et al. 2022, doi:10.1038/s41597-022-01779-4. File: FLAb, binding data.